Molecules are shown by their SMILES. The list shows a part of the results, in another mix than the full data. Activity calls are given as the source filed them.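 Rule for the calls: active = inhibition above a set limit, the mean inhibition across all tested compounds plus 3 SD (cut at about 34% in these data); inactive = the rest.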

Usually inhibition stands for the relative decrease from the control value, in per cent.

This assay is described as follows: blockers of IFN-gamma driven STAT1 reporter – cell-based, HTS, luciferase reporter, primary screen (AID 920).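 Note: 0% = IFN-gamma with DMSO and 100% = IFN-gamma with 300 µM nifuroxazide.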 Conditions: NIH 3T3 STAT1-luciferase reporter, luminescence, at 5.5 µM, stronger effect = higher value. In general terms: In a reporter assay the amount or activity of a reporter protein is the signal.
For the molecule `O=[N+]([O-])c1cc([N+](=O)[O-])c(-n2nnc3ccccc32)c([N+](=O)[O-])c1`, the inhibition was inactive: 3.32%.
The value for `Cc1nc2ccc3ccccc3c2s1.O=[N+]([O-])c1cc([N+](=O)[O-])c(O)c([N+](=O)[O-])c1` was inactive: -10.4%; that for `CP(=O)(Nc1ccc(SC(F)(F)F)cc1)Oc1ccccc1` (stereo not given) was inactive: 8.69%.
The value for `CCCOc1ccc(NP(C)(=O)Oc2ccc(Cl)cc2)cc1` (stereo not given) was inactive: -2.2%.
With `COc1ccccc1OP(C)(=O)Nc1c(C)cccc1C` (stereo not given), the inhibition is inactive: 3.51%.
The value for `CN1CCCCC1COC(=O)C1(O)c2ccccc2CCc2ccccc21` (stereo not given) was inactive: 7.59%; that for `CC1=NCCc2c1[nH]c1ccccc21.O=[N+]([O-])c1cc([N+](=O)[O-])c(O)c([N+](=O)[O-])c1` was inactive: 9.81%.
In the case of `Cc1cc(C)cc(OP(C)(=O)Nc2ccc(C)cc2C)c1` (stereo not given), the inhibition is inactive: -7.18%.
As for `CCOC(=O)c1ccc(NP(C)(=O)Oc2cc(C)cc(C)c2)cc1` (stereo not given), the inhibition was inactive: -8.27%.
The value for `CP(=O)(Nc1cccc(Br)c1)Oc1ccccc1` (stereo not given) was inactive: -2.77%; that for `Cc1cc(C)cc(OP(C)(=O)Nc2ccccn2)c1` (stereo not given) was inactive: -10.1%.
On to `Cc1ccc(C)c(NP(C)(=O)Oc2ccccc2)c1` (stereo not given), for which the inhibition is inactive: -4.64%.
The same measure for `CCN(CC)CCCOC(=O)C(O)(c1ccccc1)c1ccccc1`: inactive: -2.28%; for `CC(C)(C)c1ccc(OP(C)(=O)Nc2ccc(SC(F)(F)F)cc2)cc1` (stereo not given): inactive: 4.14%; for `Cc1cccc(C)c1OP(C)(N)=O` (stereo not given): inactive: 6.41%.
The value for `O=[N+]([O-])c1ccc2c(c1)C=Nc1ccccc1O2` was inactive: -3.28%.
Consider `COc1ccccc1OP(C)(=O)Nc1cc(Cl)ccc1C` (stereo not given), for which the inhibition is inactive: 6.01%.
The value for `COc1ccc(OP(C)(=O)Nc2cccc(F)c2)cc1` (stereo not given) was inactive: -6.94%.
For the molecule `Cc1cc(C)cc(OP(C)(N)=O)c1` (stereo not given), the inhibition was inactive: 3.22%.
The value for `CCOC(=O)c1ccc(NP(C)(=O)Oc2ccccc2)cc1` (stereo not given) was inactive: -1.3%; that for `COc1ccccc1OP(C)(=O)Nc1ccc(C)cc1` (stereo not given) was inactive: 1.54%; that for `Cc1ccc(NP(C)(=O)Oc2ccccc2)c(C)c1` (stereo not given) was inactive: 5.62%.
For `COc1ccccc1OP(C)(=O)Nc1ccccc1` (stereo not given), the inhibition is inactive: -6.08%.
As for `CP(=O)(Nc1ccccc1Br)Oc1ccccc1` (stereo not given), the inhibition was inactive: 4.39%.
The same measure for `CP(=S)(Nn1cnnc1)Oc1ccccc1` (stereo not given): inactive: 6.65%; for `CP(=O)(NC(=O)Nc1ccccc1)Oc1ccccc1` (stereo not given): inactive: 2.51%; for `Cc1cc(C)cc(OP(C)(=O)Nc2ccc(SC(F)(F)F)cc2)c1` (stereo not given): inactive: -4.01%.
The same measure for `Cc1cccc(C)c1OP(C)(=O)Nc1ccc(SC(F)(F)F)cc1` (stereo not given): inactive: -4.69%; for `CP(=O)(Oc1ccccc1)OC(c1ccccc1)C(F)(F)F` (stereo not given): inactive: 15.5%; for `CP(=O)(Nc1ccccn1)Oc1ccc(Cl)cc1` (stereo not given): inactive: 6.63%.
Turning to `CCOP(C)(=S)SCC(=O)NC(C)C(=O)O` (stereo not given), the inhibition was inactive: -11.4%.
In the case of `CCOC(=O)c1ccc(NP(C)(=O)Oc2ccc(OC)cc2)cc1` (stereo not given), the inhibition was inactive: 2.97%.
On to `CP(=O)(Oc1ccccc1)N1CCOC1=O` (stereo not given), for which the inhibition is inactive: 0.16%.
The same measure for `CCc1ccc(OP(C)(=O)Nc2cccnc2)cc1` (stereo not given): inactive: -1.52%; for `COc1ccccc1OP(C)(=O)Nc1c(C)n(C)n(-c2ccccc2)c1=O` (stereo not given): inactive: 5.62%.
The value for `CCN(CC)CC(O)COC(=O)C(O)(c1ccccc1)C1CCCCC1` (stereo not given) was inactive: -5.45%.
For the molecule `COc1ccc(OP(C)(=O)Nc2ccc(Br)cc2)cc1` (stereo not given), the inhibition was inactive: 5.04%.
The value for `CN(C)C(=O)c1c([N+](=O)[O-])cc([N+](=O)[O-])cc1[N+](=O)[O-]` was inactive: -1.06%; that for `CP(=O)(Nc1ccc(Cl)cc1)Oc1ccc(F)cc1` (stereo not given) was inactive: 8.04%; that for `CC(C)(C)c1ccc(OP(C)(=O)O)cc1` was inactive: -3.24%.
The same measure for `COc1ccccc1OP(C)(=O)Nc1ccccc1Br` (stereo not given): inactive: -6.74%; for `CP(=O)(OC12CC3CC(CC(C3)C1)C2)OC12CC3CC(CC(C3)C1)C2`: inactive: 12.1%; for `CCOC(=O)c1ccc(NP(C)(=O)Oc2ccc(Cl)cc2)cc1` (stereo not given): inactive: 4.33%.
As for `COc1ccc(OP(C)(=O)Nc2ccccc2Br)cc1` (stereo not given), the inhibition is inactive: 3.13%.
The value for `COc1ccccc1OP(C)(=O)Nc1ccc(C)c(C)c1` (stereo not given) was inactive: 1.12%; that for `Cc1cc(C)cc(OP(C)(=O)Nc2cccc(C(F)(F)F)c2)c1` (stereo not given) was inactive: -0.34%; that for `CP(=O)(OCCOc1ccccc1)OCCOc1ccccc1` was inactive: -3.19%.
The value for `CP(=O)(Nc1ccc(Cl)cc1Cl)Oc1ccccc1` (stereo not given) was inactive: -2.44%.
The same measure for `Cc1nc2ccc3ccccc3c2o1.O=[N+]([O-])c1cc([N+](=O)[O-])c(O)c([N+](=O)[O-])c1`: inactive: -5.51%; for `CN(C)CCOC(=O)C(O)(c1ccccc1)C1CCCC1` (stereo not given): inactive: 4.4%; for `COc1ccc(OP(C)(=O)Nc2ccccn2)cc1` (stereo not given): inactive: -0.38%.
On to `CCc1ccc(OP(C)(=O)O)cc1`, for which the inhibition was inactive: 4.74%.
The same measure for `CP(=O)(Nc1ccccn1)Oc1ccccc1` (stereo not given): inactive: -1.48%; for `COc1ccccc1OP(C)(=O)Nc1ccc(C)cc1C` (stereo not given): inactive: 5.96%; for `O=[N+]([O-])c1cc([N+](=O)[O-])c(Nc2ccccn2)c([N+](=O)[O-])c1`: inactive: 28.5%.
For `Cc1c(NP(C)(=O)Oc2ccc(C(C)C)cc2)c(=O)n(-c2ccccc2)n1C` (stereo not given), the inhibition is inactive: -4.17%.
On to `CC(C)c1ccc(OP(C)(=O)Nc2ccc(SC(F)(F)F)cc2)cc1` (stereo not given), for which the inhibition is inactive: -3.28%.
The value for `CP(=O)(Nc1ccccc1F)Oc1ccccc1` (stereo not given) was inactive: -7.52%.
The same measure for `O=C(OCCN1CCN(CCOCc2ccccc2)CC1)C(O)(c1ccccc1)c1ccccc1`: inactive: -4.22%.
The value for `COc1ccc(OP(C)(=O)Nc2ccc(SC(F)(F)F)cc2)cc1` (stereo not given) was inactive: -1.75%; that for `CCOC(=O)c1ccc(NP(C)(=O)Oc2ccc(F)cc2)cc1` (stereo not given) was inactive: -4.27%; that for `CP(=O)(Nc1ccccc1)Oc1ccc(F)cc1` (stereo not given) was inactive: -4.11%.
`CCN(CC)CCCOC(=O)C(O)(c1ccccc1)C1CCCCC1` (stereo not given): the inhibition is inactive: 2.23%.
With `COc1ccc(NP(C)(=O)Oc2ccccc2OC)cc1` (stereo not given), the inhibition was inactive: 0.04%.
The same measure for `CN(C)CCOC(=O)C(O)(c1ccccc1)C1CCCCC1` (stereo not given): inactive: 8.37%.
The same measure for `COc1ccc(OP(C)(=O)Nc2cccc(Br)c2)cc1` (stereo not given): inactive: 0.63%.
The same measure for `O=[N+]([O-])c1cc([N+](=O)[O-])c(NCC2CCS(=O)(=O)C2)c([N+](=O)[O-])c1` (stereo not given): inactive: 15.7%; for `CCOP(C)(=S)SCC(=O)NC(C)(CC)C(=O)O` (stereo not given): inactive: 1.01%.
For `Cc1ccccc1NP(C)(=O)Nc1ccccc1C`, the inhibition is inactive: 3.85%.
In the case of `CP(=O)(Nc1ccc2c(c1)OCCO2)Oc1ccccc1` (stereo not given), the inhibition was inactive: 7.76%.

The record behind these values is PubChem BioAssay AID920 (The Scripps Research Institute Molecular Screening Center, 2007).
